Results: PMC6405930, “Conservation of the Amyloid Interactome Across Diverse Fibrillar Structures” (Scientific Reports, 2019)

The chains behind the UniProt entries cited, without tags or fusion partners. Residues count along the entry.
UniProt P05067, 672-711: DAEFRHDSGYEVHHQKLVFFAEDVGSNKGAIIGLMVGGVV

How the values were obtained:
[1] = target: Ab1 fibrils (Aβ(1–40)) (Homo sapiens, UniProt P05067); test: Fibril titration with ThT (fluorescence); details: 7.5 μg fibril material, two-site binding model
Experimental: (§1) Fibril material (7.5 μg) was set up in 100 μL phosphate buffer in a 96 well half-area NBS plate (NUNC/Terma).

[2] = target: Ab2 fibrils (Aβ(1–40)) (Homo sapiens, UniProt P05067); test: Fibril titration with ThT (fluorescence); details: 7.5 μg fibril material, two-site binding model
Experimental: as §1

[3] = read-out: dissociation constant kd1
[4] = read-out: dissociation constant kd2

Cc1ccc2c(c1)sc(-c1ccc(N(C)C)cc1)[n+]2C [ThT, Thioflavin T]
Kd [1, 3]: 0.4 ± 0.01 µM
Kd [1, 4]: 0.82 ± 0.02 µM
Kd [2, 3]: 0.4 ± 0.01 µM
Kd [2, 4]: 0.8 µM

Where two headings read alike, the source gives them in different places.
